This passage reports remaining activity results from PubChem BioAssay AID602143 (Vanderbilt Specialized Chemistry Center, 2011).

Protein sequences, listed by entry. Tags and fused reporters are not part of them. Lines headed by an entry give the natural chain unless they say otherwise; changes in a name come on top.
UniProt O14939: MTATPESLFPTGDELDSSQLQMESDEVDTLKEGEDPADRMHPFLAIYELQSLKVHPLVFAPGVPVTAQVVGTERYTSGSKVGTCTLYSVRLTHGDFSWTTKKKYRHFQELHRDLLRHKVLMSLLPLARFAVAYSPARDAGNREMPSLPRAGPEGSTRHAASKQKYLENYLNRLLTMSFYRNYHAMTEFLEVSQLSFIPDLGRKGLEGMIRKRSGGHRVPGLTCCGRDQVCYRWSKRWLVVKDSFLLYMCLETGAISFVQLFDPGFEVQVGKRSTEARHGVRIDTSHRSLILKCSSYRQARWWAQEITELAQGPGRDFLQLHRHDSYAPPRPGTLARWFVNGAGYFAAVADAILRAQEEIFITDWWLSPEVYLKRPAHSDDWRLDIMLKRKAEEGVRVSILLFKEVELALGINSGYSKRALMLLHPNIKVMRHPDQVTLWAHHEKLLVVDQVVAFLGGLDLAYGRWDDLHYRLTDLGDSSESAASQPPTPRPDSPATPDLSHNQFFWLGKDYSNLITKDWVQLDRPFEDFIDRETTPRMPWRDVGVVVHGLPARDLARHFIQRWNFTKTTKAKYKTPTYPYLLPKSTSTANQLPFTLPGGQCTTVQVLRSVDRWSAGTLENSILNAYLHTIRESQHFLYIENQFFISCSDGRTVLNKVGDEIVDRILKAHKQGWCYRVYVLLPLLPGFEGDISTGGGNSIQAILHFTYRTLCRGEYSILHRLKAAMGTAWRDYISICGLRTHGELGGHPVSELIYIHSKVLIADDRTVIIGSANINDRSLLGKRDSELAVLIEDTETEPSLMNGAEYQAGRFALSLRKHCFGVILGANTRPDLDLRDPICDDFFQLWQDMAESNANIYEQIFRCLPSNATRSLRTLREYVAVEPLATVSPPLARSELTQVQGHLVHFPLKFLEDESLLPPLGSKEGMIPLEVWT

This is a selection; strong and weak results do not stand in their true shares. Calls of active or inactive are those of the source. Rule as the data show it: active = remaining activity below about 50%; inactive = the rest.

The target in the experiment is Phospholipase D2 (Homo sapiens) (UniProt O14939). The experiment can be described thus: cellular phospholipase D2 activity inhibition – cell-based, HEK293, single concentration (AID 602143).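 Also: tested at 200 nM.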 Particulars: HEK293 cellular PLD2 activity, percent of control; hits give low values.

Turning to `C[C@@H](CN1CCC2(CC1)C(=O)NCN2c1ccccc1)NC(=O)c1ccc2ccccc2c1`, the remaining activity was active: 27.4%.

As for `O=C(NCCN1CCC2(CC1)C(=O)NCN2c1cccc(F)c1)c1ccc2ccccc2c1`, the remaining activity is active: 7.79%.

In general, remaining activity refers to the activity still measured, relative to the control.
